# Reference: paper PMC5838147, “Modulation of Oral Bioavailability and Metabolism for Closely Related Cyclic Hexapeptides” (International Journal of Peptide Research and Therapeutics, 2017)
# Assay: in vitro
# Settings: dog, MDCK
row,SMILES,Papp
1,"CC(C)C[C@@H]1NC(=O)[C@H](Cc2ccc(O)cc2)N(C)C(=O)[C@H]2CCCN2C(=O)[C@H](CC(C)C)NC(=O)[C@H](CC(C)C)N(C)C(=O)[C@@H](CC(C)C)N(C)C1=O [(2), [NMe-Tyr-Leu-NMe-D-Leu-NMe-Leu-Leu-D-Pro]]",11.4 ×10⁻⁶ cm/s
2,"CC(C)C[C@@H]1NC(=O)[C@H](Cc2ccc(O)cc2)NC(=O)[C@H]2CCCN2C(=O)[C@H](CC(C)C)NC(=O)[C@H](CC(C)C)NC(=O)[C@@H](CC(C)C)NC1=O [(1), [Tyr-Leu-D-Leu-Leu-Leu-D-Pro-]]",2 ×10⁻⁶ cm/s
